Measurements reported in patent US20080152640A1, “Means and Methods For Treating a Disease Which is Associated With an Excess Transport of Hyaluronan Across a Lipid Bilayer” (priority 2003, published 2008).
Like-named read-outs stand apart in the source and are kept apart here.

Chains of the proteins cited; added tags and fusions are not shown. Lines headed by an entry give the natural chain unless they say otherwise; changes in a name come on top.
UniProt O15439: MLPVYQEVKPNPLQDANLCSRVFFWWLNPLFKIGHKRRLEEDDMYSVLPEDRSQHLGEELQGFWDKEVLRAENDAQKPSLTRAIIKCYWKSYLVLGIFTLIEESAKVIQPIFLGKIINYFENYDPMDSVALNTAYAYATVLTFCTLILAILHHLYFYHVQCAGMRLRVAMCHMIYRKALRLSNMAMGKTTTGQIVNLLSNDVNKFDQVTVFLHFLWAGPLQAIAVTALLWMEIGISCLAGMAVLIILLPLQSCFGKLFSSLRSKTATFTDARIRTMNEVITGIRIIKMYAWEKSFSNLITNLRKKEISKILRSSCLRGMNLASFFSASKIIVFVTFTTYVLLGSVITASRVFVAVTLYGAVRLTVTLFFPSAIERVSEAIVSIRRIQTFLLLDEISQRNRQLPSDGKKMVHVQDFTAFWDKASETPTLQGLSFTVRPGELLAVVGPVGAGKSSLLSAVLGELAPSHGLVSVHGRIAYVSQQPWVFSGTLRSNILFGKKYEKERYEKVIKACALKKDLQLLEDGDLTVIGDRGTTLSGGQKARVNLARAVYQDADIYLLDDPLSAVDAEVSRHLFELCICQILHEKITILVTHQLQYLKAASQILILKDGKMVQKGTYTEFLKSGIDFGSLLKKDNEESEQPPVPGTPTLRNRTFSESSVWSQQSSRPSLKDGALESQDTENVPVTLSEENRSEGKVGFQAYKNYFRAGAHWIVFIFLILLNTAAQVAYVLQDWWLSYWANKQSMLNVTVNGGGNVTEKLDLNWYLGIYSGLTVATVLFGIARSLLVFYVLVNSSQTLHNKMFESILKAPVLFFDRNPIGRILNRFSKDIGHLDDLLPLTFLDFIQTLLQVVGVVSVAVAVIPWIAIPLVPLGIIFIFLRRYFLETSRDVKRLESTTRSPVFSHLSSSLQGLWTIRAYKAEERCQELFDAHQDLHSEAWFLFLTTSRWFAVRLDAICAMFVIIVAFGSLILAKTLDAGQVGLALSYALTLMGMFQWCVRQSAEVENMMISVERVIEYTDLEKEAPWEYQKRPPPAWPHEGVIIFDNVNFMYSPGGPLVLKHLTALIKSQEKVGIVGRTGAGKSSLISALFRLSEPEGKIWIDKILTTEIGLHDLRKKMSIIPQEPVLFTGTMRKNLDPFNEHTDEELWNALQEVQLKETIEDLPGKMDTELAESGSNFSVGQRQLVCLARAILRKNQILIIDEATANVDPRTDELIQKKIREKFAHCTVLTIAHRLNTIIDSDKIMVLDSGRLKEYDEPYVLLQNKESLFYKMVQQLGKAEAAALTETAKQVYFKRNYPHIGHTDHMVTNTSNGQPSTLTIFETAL

What was measured:
human skin fibroblasts = assay: Proliferation of human skin fibroblasts (cell counting); assay type: cell-based; details: Skin fibroblast, read-out: Proliferation (IC50)
MRP4 = MRP4 (Homo sapiens, UniProt O15439); details: cited from earlier work

Structure (SMILES)	IC50 (human skin fibroblasts) [nM]	IC50 (MRP4; read-out: IC50, MRP4 mediated export of methotrexate, substrate methotrexate) [nM]	IC50 (MRP4; read-out: published inhibitory concentrations IC50 or Ki, MRP4) [nM]
OCCN(CCO)c1nc(N2CCCCC2)c2nc(N(CCO)CCO)nc(N3CCCCC3)c2n1 [Dipyramidole]	4000	–	–
CN(C)C(=O)CCSC(SCCC(=O)O)c1cccc(/C=C/c2ccc3ccc(Cl)cc3n2)c1 (stereo not drawn) [MK-571]	–	~1000	1000
